These are literature values, as cited in patent US20110268822A1, “METHODS FOR SYNTHESIZING KOTALANOL AND STEREOISOMERS AND ANALOGUES THEREOF, AND NOVEL COMPOUNDS PRODUCED THEREBY” (SIMON FRASER UNIVERSITY, priority 2008, published 2011).

Sequences of proteins named here, by UniProt entry; tags and fusion partners are left off. Residues count along the entry.
UniProt O43451, 87-954 limits assumed: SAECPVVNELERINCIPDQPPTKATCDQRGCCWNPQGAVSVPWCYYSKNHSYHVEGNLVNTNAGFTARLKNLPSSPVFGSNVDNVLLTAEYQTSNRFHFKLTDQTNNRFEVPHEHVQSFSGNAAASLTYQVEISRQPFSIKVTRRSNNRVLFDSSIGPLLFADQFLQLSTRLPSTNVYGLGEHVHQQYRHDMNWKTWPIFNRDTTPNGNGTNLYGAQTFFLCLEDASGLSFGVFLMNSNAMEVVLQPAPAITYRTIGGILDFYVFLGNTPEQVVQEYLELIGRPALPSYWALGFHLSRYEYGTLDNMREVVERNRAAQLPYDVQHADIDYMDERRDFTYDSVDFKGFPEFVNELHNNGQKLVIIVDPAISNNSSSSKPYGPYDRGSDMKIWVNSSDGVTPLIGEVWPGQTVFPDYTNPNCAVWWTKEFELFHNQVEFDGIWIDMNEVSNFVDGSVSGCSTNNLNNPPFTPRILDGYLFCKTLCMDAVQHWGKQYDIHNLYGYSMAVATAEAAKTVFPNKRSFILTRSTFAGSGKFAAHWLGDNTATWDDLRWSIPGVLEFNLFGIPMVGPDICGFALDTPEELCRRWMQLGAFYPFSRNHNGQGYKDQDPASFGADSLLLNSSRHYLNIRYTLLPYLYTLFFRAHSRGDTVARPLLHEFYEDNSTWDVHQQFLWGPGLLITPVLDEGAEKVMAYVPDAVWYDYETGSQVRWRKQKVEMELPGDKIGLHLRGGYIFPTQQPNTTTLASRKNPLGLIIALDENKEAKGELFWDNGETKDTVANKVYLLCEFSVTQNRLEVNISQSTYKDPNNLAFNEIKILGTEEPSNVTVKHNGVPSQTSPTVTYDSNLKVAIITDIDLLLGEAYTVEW

The data set has as its target recombinant human maltase glucoamylase (MGA) (Homo sapiens, UniProt O43451). Conditions: maltose as the substrate; NA: not active; values from the inventors' earlier publications; cited from earlier work.
For orientation: Ki means a measure of affinity in units of concentration, obtained from inhibition or displacement. For `O=S(=O)([O-])OC(C(O)C[Se+]1CC(O)C(O)C1CO)C(O)C(O)CO` (stereo not drawn) [Compound 9], the inhibitory constant (Ki) was 100 ± 20 nM.

`O=S(=O)([O-])OC(C(O)C[Se+]1CC(O)C(O)C1CO)C(O)C(O)CO` (stereo not drawn) [Compound 11]: the Ki was 100 nM.

`O=S(=O)([O-])OC(C(O)C[Se+]1CC(O)C(O)C1CO)C(O)C(O)CO` (stereo not drawn) [Compound 15]: the inhibition constant Ki is 140 nM.
